Laboratory results reported in PubChem BioAssay AID623870 (Broad Institute, 2012).
The list shows a part of the results, in another mix than the full data. Activity calls are given as the source filed them.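 Rule for the calls: active = mean inhibition of replicates at least 50% and at least half of replicates each reaching 50%; inconclusive = half or more replicates reach 50% but mean below 50%; inactive = the rest.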

Molecular target: Transforming acidic coiled-coil-containing protein 3 (Homo sapiens) (UniProt Q9Y6A5)
Assay: inhibitors of ARNT PAS-B binding to TACC3 – biochemical, AlphaScreen, single concentration, primary screen (AID 623870);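 note: 0% = complete ARNT plus TACC3 wells and 100% = ARNT alone without TACC3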
Conditions: AlphaScreen His-ARNT PAS-B/GST-TACC3 binding, luminescence; at 9.99 µM; hits give high values; TACC3 fragment carries E629A point mutation

SMILES | inhibition
O=[As](O)(c1ccc(O)cc1)c1ccccc1O | inactive: -5.01%
C[As](=O)(O)c1cccc(C(=O)O)c1 | inactive: -13.5%
O=[N+]([O-])c1ccc(-c2cc([N+](=O)[O-])c(O)c([N+](=O)[O-])c2)cc1 | inactive: 5.06%
Cc1ccc2nc3c(c(C)c2c1)CC(C(Cl)Cl)S3 (stereo not drawn) | inactive: -7.82%
Cc1ccc(OP(=O)(Nc2ccc([N+](=O)[O-])cn2)Oc2ccc(C)cc2)cc1 | inactive: -6.53%
CC(C)c1ccc(OP(=O)(Nc2ccccn2)Oc2ccccc2F)cc1 (stereo not drawn) | inactive: 0.27%
COC(=O)C1(C)COP(=O)(N2CCCCCC2)OC1 (stereo not drawn) | inactive: -17.2%
ClCCSc1nnc(-c2cccnc2)o1 | inactive: -2.97%
CCN(CC)C(=S)SC(NC=O)C(Cl)(Cl)Cl (stereo not drawn) | inactive: -2.15%
O=C(OC1CN2CCC1CC2)c1cccc2[nH]cnc12 (stereo not drawn) | inactive: 1.13%
CC(C)NC(=O)NP(=O)(Oc1ccccc1)Oc1ccccc1 | inactive: 4.19%
O=[N+]([O-])c1cc([N+](=O)[O-])c(-c2ccn[nH]2)s1 | inactive: 5.73%
CS(=O)(=O)c1cc([N+](=O)[O-])c2no[n+]([O-])c2c1 | inactive: 16.3%
CCOP1(=S)c2c(C)nn(CCC#N)c2N=C(c2ccccc2F)N1C (stereo not drawn) | inactive: -0.868%
O=P(Nc1nccs1)(c1ccccc1)c1nc2ccccc2s1 (stereo not drawn) | inactive: 1.39%
O=P(Nc1nccs1)(Oc1ccccc1)Oc1ccccc1 | inactive: -1.01%
Nc1ccccc1[As](=O)(O)c1ccccc1 | inactive: -0.776%
O=C(O)COc1ccc([As](=O)(O)O)cc1[N+](=O)[O-] | inactive: 0.494%
NC(=O)Nc1ccc([As](=O)(O)O)cc1 | inactive: -4.85%
CN(C)C(=O)c1cc([N+](=O)[O-])cc2c1-c1c(cc([N+](=O)[O-])cc1[N+](=O)[O-])C2=O | inactive: 13.8%
O=[N+]([O-])c1ccc2c(c1)nnn2O | inactive: -1.76%
CN(C(=O)Cc1ccc(Cl)c(Cl)c1)[C@H]1CC[C@@]2(CCCO2)C[C@@H]1N1CCCC1 | inactive: 0.411%
N#CCCN(C(=O)COC(=O)C(O)(c1ccccc1)c1ccccc1)c1ccc(F)cc1 | inactive: -3.63%
CN(C(=O)Cc1ccccc1)[C@@H]1CC[C@]2(CCCO2)C[C@H]1N1CCCC1 | inactive: 1.79%
CCOP1(=S)c2c(C)nn(CCC#N)c2N=C(c2ccc(F)cc2)N1C (stereo not drawn) | inactive: -16.5%
COc1cc(C(=O)NCC2(N3CCOCC3)CCCCC2)cc(Cl)c1OC(C)C | inactive: -5.72%
O=[As](O)(O)c1cccnc1 | inactive: -5.91%

SMILES | inhibition
CS(=O)(=O)c1ccc(Cl)c(NC(=O)COC(=O)C(O)(c2ccccc2)c2ccccc2)c1 | inactive: 0.14%
O=C(OC1CN2CCC1CC2)c1ccc(Cl)cc1 (stereo not drawn) | inactive: -0.764%
O=[As](O)(c1cccc(O)c1)c1cccc(O)c1 | inactive: 0.159%
Cc1cccc(OCC(=O)OC2CN3CCC2CC3)c1 (stereo not drawn) | inactive: -5.64%
CCCOP(=S)(Nc1nc(N)cc(=O)[nH]1)OCCC | inactive: -5.68%
Cc1ccc(NCCc2c([N+](=O)[O-])cc([N+](=O)[O-])cc2[N+](=O)[O-])cc1 | inactive: 8.65%
Nc1cccc2c([As](=O)(O)O)cccc12 | inactive: 7.21%
CCOP(=O)(Nc1ccc(C)cn1)OCC | inactive: -8.63%
O=P1(Nc2ccccn2)COc2ccccc2OC1 | inactive: -0.5%
CCC1=CC2Cc3nc4ccc(Cl)cc4c(N)c3C(C1)C2 (stereo not drawn) | inactive: 33.9%
CCOP(=O)(NC(=NC(C)c1ccccc1)NC(C)c1ccccc1)OCC (stereo not drawn) | inactive: -0.582%
Clc1n[nH]nc1-c1nn[nH][15n]1 | inactive: 8.57%
CC(C)(C)C(=O)NC(Sc1ncccn1)C(Cl)(Cl)Cl (stereo not drawn) | inactive: 4.92%
CC1(CBr)Cn2c(nc3ccccc3c2=O)S1 (stereo not drawn) | inactive: -3.15%
CC(C)/C=N\N=C(\N)N[N+](=O)[O-] | inactive: -6.08%
CN(C(=O)Cc1ccc(Cl)c(Cl)c1)[C@@H]1CCCC[C@H]1N1CCCC1 | inactive: -1.55%
Cc1nn(-c2ccccc2)c2c1P(=O)(N1CCOCC1)N(C)C(c1ccccc1)=N2 (stereo not drawn) | inactive: -0.559%
CC1CCC(C(C)C)C(OP(=O)(Nc2ccccn2)c2ccccc2)C1 (stereo not drawn) | inactive: 0.411%
Cc1ccc(C(=O)OC2CN3CCC2CC3)cc1 (stereo not drawn) | inactive: -12.4%
O=C(/C=C/c1ccccc1)OC1CN2CCC1CC2 (stereo not drawn) | inactive: -5.08%
CCCC1OP(=O)(Nc2ccccc2)OCC1CC (stereo not drawn) | inactive: -8.47%
CN(C)C1(CNC(=O)c2ccc(S(C)(=O)=O)cc2)CCCCC1 | inactive: 3.54%
O=P1(Nc2ncccn2)COc2ccccc2OC1 | inactive: -3.31%
O=P1(Nc2ccc(Br)cn2)COc2ccccc2OC1 | inactive: 1.17%
O=[As](O)(c1cccs1)c1cccs1 | inactive: 1.73%
Nc1cccc([As](=O)(O)c2ccccc2)c1 | inactive: 3.62%
